Chains of the proteins cited; added tags and fusions are not shown. Lines headed by an entry give the natural chain unless they say otherwise; changes in a name come on top.
UniProt Q62758: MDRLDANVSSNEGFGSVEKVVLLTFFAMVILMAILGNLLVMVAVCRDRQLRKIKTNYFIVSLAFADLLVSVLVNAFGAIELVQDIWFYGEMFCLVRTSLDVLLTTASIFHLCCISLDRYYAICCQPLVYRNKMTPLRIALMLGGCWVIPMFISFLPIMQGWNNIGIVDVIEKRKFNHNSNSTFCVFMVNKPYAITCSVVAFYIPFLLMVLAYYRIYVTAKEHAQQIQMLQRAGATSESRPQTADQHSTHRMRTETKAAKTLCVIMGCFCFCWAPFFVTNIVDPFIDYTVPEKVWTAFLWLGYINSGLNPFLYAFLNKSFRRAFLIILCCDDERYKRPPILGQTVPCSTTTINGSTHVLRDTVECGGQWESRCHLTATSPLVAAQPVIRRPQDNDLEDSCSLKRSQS

According to BindingDB's records for PubMed 7796807 (Synaptic Pharmaceutical, 1995):

Target: 5-hydroxytryptamine receptor 4 (Rattus norvegicus, UniProt Q62758)

Q: Which Ki does the source give for `NCCc1c[nH]c2ccc(O)cc12` [[3H]-5-HT] here?
A: 145 nM
